Assay results reported in paper PMC9140012, “Epigenetic-Like Stimulation of Receptor Expression in SSTR2 Transfected HEK293 Cells as a New Therapeutic Strategy” (Cancers, 2022).

Test system: SSTR2 in HEKsst2 cells
Assay: Intracellular Lu-177-DOTATATE uptake, HEKsst2
Type: cell-based, murine
Conditions: 1 h; 3.9 µM 5-aza-dC and 1.85 mM VPA; p < 0.05
Method: HEK293 cells were obtained from the German Resource Center for Biological Material (DSMZ, Braunschweig, Germany) and grown in Dulbecco’s modified Eagle´s medium supplemented with 10% fetal calf serum (FCS) in a humidified atmosphere containing 5% CO2. Cells were transfected with plasmid, encoding murine HA-tagged SSTR2 receptors using lipofectamine according to the manufacturing instructions (Thermofisher, Darmstadt, Germany). Stable transfectants were selected in the presence of 500 µg/mL G-418 and characterized using radioligand binding assays, Western blot analyses, surface ELISA assays and immunocytochemistry as described previously. Non-transfected HEK293 cells were maintained under equal conditions as HEKsst2 except for the addition of G-418. In the following, HEK293 cells and SSTR2 transfected HEK293 cells are termed as HEK and HEKsst2, respectively. […]
After incubation times, the supernatant of the well was removed and the cells were washed twice with PBS (phosphate buffered saline) at 4 °C. […] The activity of all fractions was measured using a Gamma-Counter (Cobra II, Autogamma, Packard®, Canberra Company, Ruesselsheim, Germany). The intracellular activity was expressed as a percentage of the total activity normalized to the cell count of 2.0 × 10^5. […]

(DOTA)-[Tyr3, Thr8]-octreotide [Lu-177-DOTATATE, SSTR2-targeted radioligand, Lu-177 labelled (DOTA)-[Tyr3, Thr8]-octreotide]
increase in Lu-177-DOTATATE uptake vs unstimulated: 2160%
